Laboratory results from patent US12583815B2, “Inhibitors of YAP/TAZ-TEAD oncoproteins, synthesis and use thereof” (BRIDGENE BIOSCIENCES, INC., priority 2020, dated 2026).

Sequences of proteins named here, by UniProt entry; tags and fusion partners are left off.
UniProt P28347, whole entry: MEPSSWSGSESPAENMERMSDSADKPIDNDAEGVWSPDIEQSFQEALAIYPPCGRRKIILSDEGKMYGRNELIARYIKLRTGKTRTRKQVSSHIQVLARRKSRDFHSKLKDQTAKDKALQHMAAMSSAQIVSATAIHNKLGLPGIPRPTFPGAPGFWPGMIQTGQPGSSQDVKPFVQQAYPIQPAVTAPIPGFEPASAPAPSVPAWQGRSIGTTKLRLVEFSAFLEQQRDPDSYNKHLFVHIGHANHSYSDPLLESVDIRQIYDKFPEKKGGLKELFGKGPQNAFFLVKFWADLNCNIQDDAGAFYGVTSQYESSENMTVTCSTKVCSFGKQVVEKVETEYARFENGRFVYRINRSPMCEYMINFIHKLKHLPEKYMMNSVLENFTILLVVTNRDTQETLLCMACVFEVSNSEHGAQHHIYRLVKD

Molecular target: TEAD1 (Homo sapiens, UniProt P28347)
Assay: TEAD1-Luciferase reporter assay (MCF-7 cell-based TEAD1-Luc assay)
Settings: cells treated with compound overnight, luciferase chemiluminescence readout
Experimental: TEAD1-Luciferase Reporter Assay to Characterize the Pharmacological Properties of the Tead1 Covalent Inhibitors
FIG. 1 is a schematic illustration of the mechanism of TEAD1 inhibition by the disclosed compounds, which is the theoretical basis for the development of a TEAD-YAP/TAZ cell-based functional assay to characterize the pharmacological properties of the synthesized inhibitor compounds. The MCF-7 cell-based TEAD1-Luc assay for the IC50 measurement was performed as below. Compounds 2, 4, 5, and 7, representing different chemical scaffolds, were characterized. About 200 μL of culture medium was placed in each of the 10^4 cell/well in a 96-well plate. The next day the cells were treated with the synthesized compounds for overnight. The luciferase activity was measured with a chemiluminescent assay kit. Specifically, the plate was equilibrated at room temperature. […] and 50 μL of the medium was left inside. To each well was added 50 μL Luciferase reagents. The plates were gently rocked for more than about 15 minutes at room temperature. The luminescence signal was then read and recorded. Table 2 below summarizes the measured IC50 values for the disclosed compounds.

C=CC(=O)N1CC(OCc2cccc(C(F)(F)F)c2)C1 was tested, and the IC50 was < 100 nM.
